# Reference: PubChem BioAssay AID1066 (SRMLSC, 2008)
# This is a selection; strong and weak results do not stand in their true shares. Some results for these compounds are left out of this collection, so the calls shown say nothing about other tests. Activity calls are given as the source filed them.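 The calls were made as follows: active = inhibition above a set limit, the median over all tested compounds plus 3 SD (cut at about 9.5% in these data); inconclusive = no clear call, values can overlap the other calls; inactive = the rest.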
# System: HMG-CoA reductase (Enterococcus faecalis, mvaE)
# Assay: inhibitors of E. faecalis class II HMGR, primary screen, biochemical, Enterococcus faecalis (AID 1066);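 also: enzyme runs in reverse so mevalonate oxidation gives rising NADPH absorbance; 0% = complete reaction with DMSO and 100% = background rate lacking mevalonate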
# Details: purified E. faecalis HMGR, NADPH absorbance 340 nm kinetic; at 10 µM; active compounds read high
row,Compound,inhibition
1,COc1cccc(C(=O)NCC2(N3CCCCC3)CCCCC2)c1,inactive: -1.15%
2,CN(C)c1cccc(C(=O)NCC2(N(C)C)CCCCC2)c1,inactive: -3.55%
3,O=C(OC1CN2CCC1CC2)C(CO)(c1ccccc1)c1ccccc1 (centres undefined),inactive: -1.8%
4,CC(C)N1C(=O)CC2(CCN(CCOC(=O)C(O)(c3ccccc3)c3ccccc3)CC2)C1=O,inactive: -3.66%
5,O=C(NCC1(N2CCCCC2)CCCCC1)c1cc([N+](=O)[O-])ccc1Cl,inactive: -0.54%
6,CCN1CCCC(OC(=O)C2(O)c3ccccc3C=Cc3ccccc32)C1 (centres undefined),inactive: -5.83%
7,C=CCN1CCN(CCOC(=O)C(O)(c2ccccc2)c2ccccc2)CC1,inactive: 0.33%
8,CN(C)C1CCCC1OC(=O)C(O)(c1ccccc1)c1ccccc1 (centres undefined),inactive: -2.6%
9,Cc1ccccc1C(=O)NCC1(N2CCCCC2)CCCCC1,inactive: -1.4%
